Key:
HCC2429 lung xenografts = HCC2429 lung xenografts with anti-Notch ADCs; format: in vivo, nude (Nu/Nu) female mice; conditions: humanized ADCs; Q4dx4, doses of Tables 12 and 13
Description: (§1) Humanized anti-Notch antibodies, hu28 and hu75, and rat-human chimeric anti-Notch antibodies, ch28 and ch75, were conjugated to various linker-payload combinations and tested in 37622A1 non-small cell lung cancer (NSCLC), HCC2429 lung cancer, MDA-MB-468 breast cancer and N87 gastric cancer xenograft models. For each model described below the first dose was given on Day 0. The tumors were measured at least once a week and their volume was calculated with the formula: tumor volume (mm^3)=0.5×(tumor width^2)(tumor length). The mean tumor volumes (±S.E.M.) for each treatment group were calculated having a maximum of 10 animals and a minimum of 6 animals to be included.
Similar in vivo experiments were performed with the HCC2429 lung cancer cell line as described above. […] When the tumors reached a volume of 200 to 400 mm^3, the tumors were staged to ensure uniformity of the tumor mass among various treatment groups. The HCC2429 lung model was dosed intraveneously Q4dx4 with PBS vehicle, humanized anti-Notch ADCs and control huNeg-8.8 ADCs at the doses provided in Tables 12 and 13.

[1] = system: MDA-MB-468 breast xenografts; assay: MDA-MB-468 breast xenografts with anti-Notch ADCs; format: in vivo, female SCID Hairless Outbred (SHO) mice; conditions: for tumor volume (mm^3 ± SEM): vc6780 study
Description: as §1
Similar in vivo experiments were performed with the MDA-MB-468 breast cancer cell line as described above. […] To generate xenografts, female SCID Hairless Outbred (SHO) mice were orthotopically implanted with 10×10^6 MDA-MB-468 cells containing 50% Matrigel (BD Biosciences) in the mammary fat pad. When the tumors reached a volume of 250 to 450 mm^3, the tumors were staged to ensure uniformity of the tumor mass among various treatment groups. The MDA-MB-468 breast model was dosed intraveneously Q4dx4 with PBS vehicle, humanized anti-Notch ADCs and control huNeg-8.8 ADCs at the doses provided in Tables 14 and 15.

B1: hu75-vc6780 (conjugate)
heavy: EVQLVESGGGLVQPGGSLRLSCAASGYAFTDYWMTWVRQAPGKGLEWVAEISPNSGGTNFNEKFKGRFTISVDNAKNSLYLQMNSLRAEDTAVYYCARGEIRYNWFAYWGQGTLVTVSSASTKGPSVFPLAPSSKSTSGGTAALGCLVKDYFPEPVTVSWNSGALTSGVHTFPAVLQSSGLYSLSSVVTVPSSSLGTQTYICNVNHKPSNTKVDKKV[human IgG1 Fc left out]
light: DIQMTQSPSSLSASVGDRVTITCKASQNVGNNIAWYQQKPGKAPKLLIYYASNRYTGVPSRFSGSGYGTDFTLTISSLQPEDFATYYCQRLYNSPFTFGGGTKVEIKRTVAAPSVFIFPPSDEQLKSGTASVVCLLNNFYPREAKVQWKVDNALQSGNSQESVTEQDSKDSTYSLSSTLTLSKADYEKHKVYACEVTHQGLSSPVTKSFNRGEC
- effect on growth of HCC2429 lung xenografts (in words) (HCC2429 lung xenografts): inhibited growth of HCC2429 lung xenografts in a dose-dependent manner
- effect on growth of MDA-MB-468 breast xenografts (in words) ([1]; humanized ADCs, Q4dx4, doses of Tables 14 and 15): inhibited growth of MDA-MB-468 breast xenografts in a dose-dependent manner
- tumor volume (mm^3 ± SEM) ([1]; Dose 1 mg/kg Q4dx4 iv, DAY 7): 434 ± 29 mm^3
- tumor volume (mm^3 ± SEM) ([1]; Dose 1 mg/kg Q4dx4 iv, DAY 11): 471 ± 39 mm^3
- tumor volume (mm^3 ± SEM) ([1]; Dose 1 mg/kg Q4dx4 iv, DAY 14): 470 ± 44 mm^3
- tumor volume (mm^3 ± SEM) ([1]; Dose 1 mg/kg Q4dx4 iv, DAY 19): 536 ± 49 mm^3
- tumor volume (mm^3 ± SEM) ([1]; Dose 1 mg/kg Q4dx4 iv, DAY 22): 552 ± 44 mm^3
- tumor volume (mm^3 ± SEM) ([1]; Dose 1 mg/kg Q4dx4 iv, DAY 25): 597 ± 48 mm^3
- tumor volume (mm^3 ± SEM) ([1]; Dose 1 mg/kg Q4dx4 iv, DAY 28): 660 ± 53 mm^3
- tumor volume (mm^3 ± SEM) ([1]; Dose 1 mg/kg Q4dx4 iv, DAY 32): 634 ± 74 mm^3
- tumor volume (mm^3 ± SEM) ([1]; Dose 1 mg/kg Q4dx4 iv, DAY 35): 742 ± 80 mm^3
- tumor volume (mm^3 ± SEM) ([1]; Dose 1 mg/kg Q4dx4 iv, DAY 40): 794 ± 87 mm^3
- tumor volume (mm^3 ± SEM) ([1]; Dose 1 mg/kg Q4dx4 iv, DAY 43): 878 ± 78 mm^3
- tumor volume (mm^3 ± SEM) ([1]; Dose 1 mg/kg Q4dx4 iv, DAY 46): 868 ± 99 mm^3
- tumor volume (mm^3 ± SEM) ([1]; Dose 1 mg/kg Q4dx4 iv, DAY 49): 996 ± 109 mm^3
- tumor volume (mm^3 ± SEM) ([1]; Dose 3 mg/kg Q4dx4 iv, DAY 0): 344 ± 11 mm^3
- tumor volume (mm^3 ± SEM) ([1]; Dose 3 mg/kg Q4dx4 iv, DAY 7): 378 ± 21 mm^3
- tumor volume (mm^3 ± SEM) ([1]; Dose 3 mg/kg Q4dx4 iv, DAY 11): 403 ± 21 mm^3
- tumor volume (mm^3 ± SEM) ([1]; Dose 3 mg/kg Q4dx4 iv, DAY 14): 370 ± 28 mm^3
- tumor volume (mm^3 ± SEM) ([1]; Dose 3 mg/kg Q4dx4 iv, DAY 19): 339 ± 19 mm^3
- tumor volume (mm^3 ± SEM) ([1]; Dose 3 mg/kg Q4dx4 iv, DAY 22): 360 ± 17 mm^3
- tumor volume (mm^3 ± SEM) ([1]; Dose 3 mg/kg Q4dx4 iv, DAY 25): 381 ± 23 mm^3
- tumor volume (mm^3 ± SEM) ([1]; Dose 3 mg/kg Q4dx4 iv, DAY 28): 443 ± 33 mm^3
- tumor volume (mm^3 ± SEM) ([1]; Dose 3 mg/kg Q4dx4 iv, DAY 32): 437 ± 28 mm^3
- tumor volume (mm^3 ± SEM) ([1]; Dose 3 mg/kg Q4dx4 iv, DAY 35): 495 ± 33 mm^3
- tumor volume (mm^3 ± SEM) ([1]; Dose 3 mg/kg Q4dx4 iv, DAY 40): 535 ± 41 mm^3
- tumor volume (mm^3 ± SEM) ([1]; Dose 3 mg/kg Q4dx4 iv, DAY 43): 619 ± 47 mm^3
- tumor volume (mm^3 ± SEM) ([1]; Dose 3 mg/kg Q4dx4 iv, DAY 46): 636 ± 38 mm^3
- tumor volume (mm^3 ± SEM) ([1]; Dose 3 mg/kg Q4dx4 iv, DAY 49): 723 ± 71 mm^3
- tumor volume (mm^3 ± SEM) ([1]; Dose 3 mg/kg Q4dx4 iv, DAY 53): 795 ± 67 mm^3
- tumor volume (mm^3 ± SEM) ([1]; Dose 3 mg/kg Q4dx4 iv, DAY 56): 819 ± 77 mm^3
- tumor volume (mm^3 ± SEM) ([1]; Dose 3 mg/kg Q4dx4 iv, DAY 60): 976 ± 115 mm^3
- tumor volume (mm^3 ± SEM) ([1]; Dose 10 mg/kg Q4dx4 iv, DAY 0): 343 ± 10 mm^3
- tumor volume (mm^3 ± SEM) ([1]; Dose 10 mg/kg Q4dx4 iv, DAY 7): 370 ± 18 mm^3
- tumor volume (mm^3 ± SEM) ([1]; Dose 10 mg/kg Q4dx4 iv, DAY 11): 302 ± 21 mm^3
- tumor volume (mm^3 ± SEM) ([1]; Dose 10 mg/kg Q4dx4 iv, DAY 14): 228 ± 19 mm^3
- tumor volume (mm^3 ± SEM) ([1]; Dose 10 mg/kg Q4dx4 iv, DAY 19): 112 ± 23 mm^3
- tumor volume (mm^3 ± SEM) ([1]; Dose 10 mg/kg Q4dx4 iv, DAY 22): 52 ± 21 mm^3
- tumor volume (mm^3 ± SEM) ([1]; Dose 10 mg/kg Q4dx4 iv, DAY 25): 63 ± 25 mm^3
- tumor volume (mm^3 ± SEM) ([1]; Dose 10 mg/kg Q4dx4 iv, DAY 28): 64 ± 26 mm^3
- tumor volume (mm^3 ± SEM) ([1]; Dose 10 mg/kg Q4dx4 iv, DAY 32): 71 ± 31 mm^3
- tumor volume (mm^3 ± SEM) ([1]; Dose 10 mg/kg Q4dx4 iv, DAY 35): 85 ± 38 mm^3
- tumor volume (mm^3 ± SEM) ([1]; Dose 10 mg/kg Q4dx4 iv, DAY 40): 125 ± 44 mm^3
- tumor volume (mm^3 ± SEM) ([1]; Dose 10 mg/kg Q4dx4 iv, DAY 43): 134 ± 42 mm^3
- tumor volume (mm^3 ± SEM) ([1]; Dose 10 mg/kg Q4dx4 iv, DAY 46): 143 ± 42 mm^3
- tumor volume (mm^3 ± SEM) ([1]; Dose 10 mg/kg Q4dx4 iv, DAY 49): 159 ± 44 mm^3
- tumor volume (mm^3 ± SEM) ([1]; Dose 10 mg/kg Q4dx4 iv, DAY 53): 201 ± 63 mm^3
- tumor volume (mm^3 ± SEM) ([1]; Dose 10 mg/kg Q4dx4 iv, DAY 56): 211 ± 63 mm^3

Reference: patent US8828401B2, “Cytotoxic peptides and antibody drug conjugates thereof” (Pfizer Inc., priority 2011, dated 2014)
